Test results as given in BindingDB's records for 28626522.

The chains behind the UniProt entries cited, without tags or fusion partners. Residues count along the entry.
UniProt O42275, 24-633 limits assumed: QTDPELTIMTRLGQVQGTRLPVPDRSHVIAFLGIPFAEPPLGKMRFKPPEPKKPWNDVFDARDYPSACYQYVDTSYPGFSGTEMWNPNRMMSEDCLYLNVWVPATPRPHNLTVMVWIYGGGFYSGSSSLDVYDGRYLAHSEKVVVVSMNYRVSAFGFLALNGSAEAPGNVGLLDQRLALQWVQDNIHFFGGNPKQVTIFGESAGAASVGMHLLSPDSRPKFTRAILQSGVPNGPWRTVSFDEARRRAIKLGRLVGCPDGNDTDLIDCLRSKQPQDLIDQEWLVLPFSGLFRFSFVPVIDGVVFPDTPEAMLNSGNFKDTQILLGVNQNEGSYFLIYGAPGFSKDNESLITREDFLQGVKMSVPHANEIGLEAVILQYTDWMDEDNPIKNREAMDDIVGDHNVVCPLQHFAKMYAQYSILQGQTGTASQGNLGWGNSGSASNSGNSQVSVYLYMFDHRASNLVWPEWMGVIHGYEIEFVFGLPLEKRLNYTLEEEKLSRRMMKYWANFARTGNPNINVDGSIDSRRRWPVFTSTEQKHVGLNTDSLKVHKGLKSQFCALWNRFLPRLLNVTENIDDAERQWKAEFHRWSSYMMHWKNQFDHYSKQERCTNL

Tests used:
Acetylcholinesterase [1] = target: T1, Acetylcholinesterase (Electrophorus electricus, UniProt O42275); assay: Mixed type inhibition of Electric eel AChE assessed as inhibition constant using acetylthiocholine as substrate after 7 min by Ellman's method
Acetylcholinesterase [2] = target: T1, Acetylcholinesterase; assay: ChEBML_1686258
Description: (§1) Inhibition of Electric eel AChE using acetylthiocholine as substrate after 7 min by Ellman's method

Acetylcholinesterase [3] = target: T1, Acetylcholinesterase; assay: as §1

Row | Compound | Ki (Acetylcholinesterase [1]) | IC50 (Acetylcholinesterase [2]) | IC50 (Acetylcholinesterase [3])
1 | COc1cc(CN2CCCCC2)ccc1O | 106 µM | 227 µM | 
2 | COc1cc(CN(C)C)ccc1O |  | 919 µM | 
3 | COc1cc(CN2CCCC2)ccc1O |  |  | 403 µM
4 | COc1cc(CN2CCOCC2)ccc1O | 1570 µM | 1830 µM | 
